Assay results published in US12728168B2, “Anti-CEA antibody-exatecan analog conjugate and pharmaceutical use thereof” (JIANGSU HENGRUI MEDICINE CO., LTD., priority 2019, dated 2026).

Assays:
[1] = Monkey plasma, ADC 100 μg/mL, 0 = below lower limit of detection
[2] = test system: HCT116 (without CEA expression); experiment: Cytotoxicity of ADCs, Cell Titer-Glo, HCT116; format: cell-based; conditions: 5 days
[3] = test system: MKN45 xenograft tumor model; experiment: In vivo inhibitory activity against tumors, MKN45 xenograft; design: species or system BALB/c nude mice; conditions: 1 mpk, intraperitoneal, only once, 1 mg/kg
[4] = BSA, ADC 100 μg/mL, 0 = below lower limit of detection
[5] = Human plasma, ADC 100 μg/mL, 0 = below lower limit of detection
[6] = SD rats, intravenous 3 mg/kg, serum ELISA
human soluble CEA = target: T1, human soluble CEA (Homo sapiens, UniProt P06731); experiment: Affinity of antibodies for soluble CEA using Biacore; format: binding; conditions: 1:1 Langmuir
T1 construct: His6 (C); made in house; host or cells: 293E cells
T1 sequence (P06731 with tags, fused parts or gaps): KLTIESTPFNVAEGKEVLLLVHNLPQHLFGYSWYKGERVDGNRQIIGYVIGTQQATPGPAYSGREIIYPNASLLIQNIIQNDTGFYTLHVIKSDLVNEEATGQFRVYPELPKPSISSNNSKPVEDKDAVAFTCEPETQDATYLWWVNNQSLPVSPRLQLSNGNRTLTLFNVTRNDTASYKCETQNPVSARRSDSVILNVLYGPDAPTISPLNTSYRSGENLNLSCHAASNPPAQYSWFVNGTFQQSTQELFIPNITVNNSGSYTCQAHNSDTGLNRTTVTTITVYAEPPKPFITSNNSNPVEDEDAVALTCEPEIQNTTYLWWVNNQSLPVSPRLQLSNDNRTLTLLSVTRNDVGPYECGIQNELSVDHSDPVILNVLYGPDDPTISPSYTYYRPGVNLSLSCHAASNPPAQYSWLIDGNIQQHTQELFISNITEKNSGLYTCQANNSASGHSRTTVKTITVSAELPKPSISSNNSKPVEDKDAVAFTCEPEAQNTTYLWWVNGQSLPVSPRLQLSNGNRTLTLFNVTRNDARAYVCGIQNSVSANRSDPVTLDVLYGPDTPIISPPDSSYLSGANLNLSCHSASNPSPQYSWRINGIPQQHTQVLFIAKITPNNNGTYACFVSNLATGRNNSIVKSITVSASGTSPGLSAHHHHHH

[7] = target: T2, human CEACAM1 expressed on CHO cell surface (CEACAM1-CHO) (Homo sapiens, UniProt P13688); experiment: FACS binding assay, CEACAM1-CHO cells; conditions: Table 17, humanized antibodies and controls
T2 construct: expressed in transfected cells; host or cells: CHO cells
T2 sequence (P13688 35-526): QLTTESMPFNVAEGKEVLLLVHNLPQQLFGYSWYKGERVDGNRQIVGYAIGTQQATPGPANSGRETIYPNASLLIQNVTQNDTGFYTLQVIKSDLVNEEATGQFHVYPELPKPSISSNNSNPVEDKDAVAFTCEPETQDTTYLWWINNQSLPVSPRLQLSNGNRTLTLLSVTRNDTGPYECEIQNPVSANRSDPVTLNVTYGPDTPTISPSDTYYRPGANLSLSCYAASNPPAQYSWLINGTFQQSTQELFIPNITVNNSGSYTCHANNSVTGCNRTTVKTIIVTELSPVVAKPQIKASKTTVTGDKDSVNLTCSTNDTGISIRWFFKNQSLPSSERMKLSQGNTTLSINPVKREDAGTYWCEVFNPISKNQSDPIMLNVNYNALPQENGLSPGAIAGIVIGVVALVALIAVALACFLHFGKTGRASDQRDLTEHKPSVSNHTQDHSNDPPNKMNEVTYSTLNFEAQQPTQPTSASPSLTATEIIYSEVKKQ

B1: Hu103-32-2-A: ADC: humanized anti-CEA antibody Hu103-32 conjugated to linker toxin 2-A; DAR differs by batch (conjugate)
heavy: EVQLVQSGSELKKPGASVKVSCKASGYTFTTYGVIWVRQAPGQGLEWMGWINTYSGVPTYASDFKGRFVFSLDTSVSTAYLQISSLKAEDTAVYYCARKKTLTTVTPWFAYWGQGTLVTVSSASTKGPSVFPLAPSSKSTSGGTAALGCLVKDYFPEPVTVSWNSGALTSGVHTFPAVLQSSGLYSLSSVVTVPSSSLGTQTYICNVNHKPSNTKVDKKV[left out - human IgG1 Fc]
light: ELVLTQSPSASASLGASVKLTCTLSSQHSTYTIEWYQQQPEKGPRYVMELKKDGSHSTGEGIPDRFSGSSSGAERYLTISSLQSEDEADYYCGVGNTIKEQFVYVFGGGTKLTVLGQPKANPTVTLFPPSSEELQANKATLVCLISDFYPGAVTVAWKADGSPVKAGVETTKPSKQSNNKYAASSYLSLTPEQWKSHRSYSCQVTHEGSTVEKTVAPTECS
Percentages of toxins in plasma (%) ([1]; day 0, 37° C.): 0%
Percentages of toxins in plasma (%) ([1]; day 7, 37° C.): 0.38%
Percentages of toxins in plasma (%) ([1]; day 14, 37° C.): 0.92%
Percentages of toxins in plasma (%) ([1]; day 21, 37° C.): 0.96%
IC50 ([2]; ADC batches of high DAR (6.29-7)): 78.1 nM
IC50 ([2]; ADC batches of low DAR (3.97-4.8)): 83.6 nM
Tumor inhibition rate (%) [3]: 11.39%
Percentages of toxins in plasma (%) ([4]; day 0, 37° C.): 0%
Percentages of toxins in plasma (%) ([4]; day 7, 37° C.): 0%
Percentages of toxins in plasma (%) ([4]; day 14, 37° C.): 0%
Percentages of toxins in plasma (%) ([4]; day 21, 37° C.): 0%
Percentages of toxins in plasma (%) ([5]; day 0, 37° C.): 0%
Percentages of toxins in plasma (%) ([5]; day 7, 37° C.): 0.93%
Percentages of toxins in plasma (%) ([5]; day 14, 37° C.): 0.78%
Percentages of toxins in plasma (%) ([5]; day 21, 37° C.): 1.13%
AUC 0-t ([6]; Antibodies): 3235 µg·h/mL
AUC 0-∞ ([6]; Antibodies): 3357 µg·h/mL
CL ([6]; Antibodies): 21.75 mL/day/kg
Cmax ([6]; Antibodies): 66.35 µg/mL
MRT 0-∞ ([6]; Antibodies): 160.14 h
Vz ([6]; Antibodies): 0.20629 L/kg
t1/2(d) ([6]; Antibodies): 6.58 days
t1/2(h) ([6]; Antibodies): 157.87 h
AUC 0-t ([6]; Intact ADC): 3609 µg·h/mL
AUC 0-∞ ([6]; Intact ADC): 3699 µg·h/mL
CL ([6]; Intact ADC): 19.70 mL/day/kg
Cmax ([6]; Intact ADC): 64.94 µg/mL
MRT 0-∞ ([6]; Intact ADC): 144.63 h
Vz ([6]; Intact ADC): 0.16009 L/kg
t1/2(d) ([6]; Intact ADC): 5.63 days
t1/2(h) ([6]; Intact ADC): 135.19 h

B2: Hu103-32: humanized antibody of mAb103: h103VH4 + h103VL8; heavy chain SEQ ID NO: 86, light chain SEQ ID NO: 87 (antibody)
heavy: EVQLVQSGSELKKPGASVKVSCKASGYTFTTYGVIWVRQAPGQGLEWMGWINTYSGVPTYASDFKGRFVFSLDTSVSTAYLQISSLKAEDTAVYYCARKKTLTTVTPWFAYWGQGTLVTVSSASTKGPSVFPLAPSSKSTSGGTAALGCLVKDYFPEPVTVSWNSGALTSGVHTFPAVLQSSGLYSLSSVVTVPSSSLGTQTYICNVNHKPSNTKVDKKV[left out - human IgG1 Fc]
light: ELVLTQSPSASASLGASVKLTCTLSSQHSTYTIEWYQQQPEKGPRYVMELKKDGSHSTGEGIPDRFSGSSSGAERYLTISSLQSEDEADYYCGVGNTIKEQFVYVFGGGTKLTVLGQPKANPTVTLFPPSSEELQANKATLVCLISDFYPGAVTVAWKADGSPVKAGVETTKPSKQSNNKYAASSYLSLTPEQWKSHRSYSCQVTHEGSTVEKTVAPTECS
modifications: Synthetic Sequence_Heavy chain sequence of Hu103-32; Synthetic Sequence_Light chain sequence of Hu103-32
ka (human soluble CEA): 33300 M⁻¹ s⁻¹
kd (human soluble CEA): 0.00103 s⁻¹
EC50 (nM) CEACAM1-CHO [7]: No binding

B3: Hu63-13: humanized antibody of mAb63: h63VH5 + h63VL1; heavy chain SEQ ID NO: 80, light chain SEQ ID NO: 81 (antibody)
heavy: EVQLVQSGAEVKKPGASVKVSCKASGYTFTDFYMNWVRQAPGQGLEWMGDIFPKSGNTDYNRKFKDRVTMTRDTSTSTVYMELSSLRSEDTAVYYCARSGYGNYVFDYWGQGTLVTVSSASTKGPSVFPLAPSSKSTSGGTAALGCLVKDYFPEPVTVSWNSGALTSGVHTFPAVLQSSGLYSLSSVVTVPSSSLGTQTYICNVNHKPSNTKVDKKV[left out - human IgG1 Fc]
light: DIQMTQSPSSLSASVGDRVTITCRTSQDINIYLNWYQQKPGKAPKLLIYYRSGLLSGVPSRFSGSGSGTDFTLTISSLQPEDFATYYCQQGNTLPPTFGGGTKVEIKRTVAAPSVFIFPPSDEQLKSGTASVVCLLNNFYPREAKVQWKVDNALQSGNSQESVTEQDSKDSTYSLSSTLTLSKADYEKHKVYACEVTHQGLSSPVTKSFNRGEC
modifications: Synthetic Sequence_Heavy chain sequence of Hu63-13; Synthetic Sequence_Light chain sequence of Hu63-13
ka (human soluble CEA): 29900 M⁻¹ s⁻¹
kd (human soluble CEA): 0.00431 s⁻¹
EC50 (nM) CEACAM1-CHO [7]: No binding

B4: Hu47-14: humanized antibody of mAb47: h47VH4 + h47VL2; heavy chain SEQ ID NO: 82, light chain SEQ ID NO: 83 (antibody)
heavy: EVQLVQSGSELKKPGASVKVSCKASGYTFTTYGMSWVKQAPGQGLKWMGWINTYSGVPTYASDFKGRFVFSLDTSVSTAYLQISSLKAEDTAVYYCARRGNYGRWDFDVWGQGTTVTVSSASTKGPSVFPLAPSSKSTSGGTAALGCLVKDYFPEPVTVSWNSGALTSGVHTFPAVLQSSGLYSLSSVVTVPSSSLGTQTYICNVNHKPSNTKVDKKV[left out - human IgG1 Fc]
light: EIVLTQSPDFQSVTPKEKVTITCSVSSTISSSNLHWYQQKPDQSPKPLIYGTSNLASGVPSRFSGSGSGTDYTLTINSLEAEDAATYYCQQWSIYPLTFGQGTKLEIKRTVAAPSVFIFPPSDEQLKSGTASVVCLLNNFYPREAKVQWKVDNALQSGNSQESVTEQDSKDSTYSLSSTLTLSKADYEKHKVYACEVTHQGLSSPVTKSFNRGEC
modifications: Synthetic Sequence_Heavy chain sequence of Hu47-14; Synthetic Sequence_Light chain sequence of Hu47-14
ka (human soluble CEA): 131000 M⁻¹ s⁻¹
kd (human soluble CEA): 0.188 s⁻¹
EC50 (nM) CEACAM1-CHO [7]: No binding

B5: Hu67-14: humanized antibody of mAb67: h67VH3 + h67VL4; heavy chain SEQ ID NO: 84, light chain SEQ ID NO: 85 (antibody)
heavy: EVQLVQSGAEVKKPGESLKISCKGSGYSFTDYHMNWVKQMPGKGLEWMGDINPDIGGTSYNQNFKGKVTISVDKSISTAYLQWSSLKASDTAMYYCARWDFDSFANWGQGTLVTVSSASTKGPSVFPLAPSSKSTSGGTAALGCLVKDYFPEPVTVSWNSGALTSGVHTFPAVLQSSGLYSLSSVVTVPSSSLGTQTYICNVNHKPSNTKVDKKV[left out - human IgG1 Fc]
light: DIQMTQSPSSLSASVGDRVTITCRASESVSIIGTNLIHWYQQKPGKAPKLLIYHASNLETGVPSRFSGSGSGTDFTLTISSLQPEDFATYYCLQSRKIPYTFGGGTKVEIKRTVAAPSVFIFPPSDEQLKSGTASVVCLLNNFYPREAKVQWKVDNALQSGNSQESVTEQDSKDSTYSLSSTLTLSKADYEKHKVYACEVTHQGLSSPVTKSFNRGEC
modifications: Synthetic Sequence_Heavy chain sequence of Hu67-14; Synthetic Sequence_Light chain sequence of Hu67-14
ka (human soluble CEA): 37600 M⁻¹ s⁻¹
kd (human soluble CEA): 0.00859 s⁻¹
EC50 (nM) CEACAM1-CHO [7]: No binding

Like-named read-outs stand apart in the source and are kept apart here.
